SMILES strings stand for the structures. Only a part is listed here, and it is no random draw. Some tests of the compounds listed are not included; inactive here does not mean inactive elsewhere. Calls of active or inactive are those of the source.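 The calls were made as follows: active = CYP2C19 inhibition above a set limit at 5 µM in the primary screen (cut at about 50% in these data); inactive = the rest.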

Chains of the proteins cited; added tags and fusions are not shown.
UniProt P33261, whole entry: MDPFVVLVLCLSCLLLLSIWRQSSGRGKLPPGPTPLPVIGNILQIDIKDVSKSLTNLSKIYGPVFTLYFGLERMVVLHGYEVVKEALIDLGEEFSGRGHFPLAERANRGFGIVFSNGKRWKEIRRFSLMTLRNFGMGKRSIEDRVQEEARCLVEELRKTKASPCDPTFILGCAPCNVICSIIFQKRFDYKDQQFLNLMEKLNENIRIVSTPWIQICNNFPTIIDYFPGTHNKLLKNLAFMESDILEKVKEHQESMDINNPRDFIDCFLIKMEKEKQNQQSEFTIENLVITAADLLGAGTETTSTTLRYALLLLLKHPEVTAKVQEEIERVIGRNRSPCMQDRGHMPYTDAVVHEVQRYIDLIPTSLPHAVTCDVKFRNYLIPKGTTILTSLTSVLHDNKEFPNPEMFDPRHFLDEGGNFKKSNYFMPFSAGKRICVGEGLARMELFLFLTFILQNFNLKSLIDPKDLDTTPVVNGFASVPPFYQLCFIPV

The inhibition is the change of the read-out against control, counted positive when it falls.

For this assay, the target named is Cytochrome P450 2C19 (Homo sapiens) (UniProt P33261). As to the kind of experiment: blockers of cytochrome P450 2C19 activity – biochemical, luminescence, ADME assay, primary screen (AID 778).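 Also: plate controls were negative control wells for no effect and 2.5 mM tranylcypromine positive control for full effect.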 The following applies: CYP2C19 Supersomes, luciferin-H EGE luminescence, 30 min; at 5 µM; hits give high values.
As to `CN(C)c1cccc(C(=O)NCC2(N(C)C)CCCCC2)c1`, the inhibition is inactive: -2.6%.
Turning to `O=C(OC1CN2CCC1CC2)C(CO)(c1ccccc1)c1ccccc1` (stereo not drawn), the inhibition was inactive: -7%.
The result for `CC(C)N1C(=O)CC2(CCN(CCOC(=O)C(O)(c3ccccc3)c3ccccc3)CC2)C1=O` reads inactive: -7.7%.

Source of the values: PubChem BioAssay AID778 (Sanford-Burnham Center for Chemical Genomics, 2007).
